In assay [1] the test system is MMP1 expression by activated primary synovial fibroblasts. Description: 'MMP assay': MMP1 expression by complex trigger activated synovial fibroblasts (MMP1 ELISA). Type of assay: cell-based. The conditions noted are these: Homo sapiens, Fibroblast, Table 3, RASFs, 48 hrs. Here is the method:
A 384-well format ELISA for measurement of MMP1 is developed. Various primary antibodies are tested, as well as various ELISA protocols. The following protocol is developed and validated to measure MMP1 levels in SF supernatant in 384 well plates: white Lumitrac 600 384 well plates (Greiner) are coated with 2 μg/mL anti-MMP1 antibody MAB1346 (Chemicon). The antibody is diluted in buffer 40 (1.21 g Tris base (Sigma), 0.58 g NaCl (Calbiochem) and 5 ml 10% NaN3 (Sigma) in 1 L milliQ water and adjusted to pH 8.5). After overnight incubation at 4° C., plates are washed with PBS (80 g NaCl, 2 g KCl (Sigma), 11.5 g Na2HPO4.7H2O and 2 g KH2PO4 in 10 L milliQ; pH 7.4) and blocked with 100 μL/well Casein buffer (2% Casein (VWR International) in PBS). Next day, casein buffer is removed from ELISA plates and replaced by 50 μL/well EC buffer (4 g casein, 2.13 g Na2HPO4 (Sigma), 2 g bovine albumin (Sigma), 0.69 g NaH2PO4.H2O (Sigma), 0.5 g CHAPS (Roche), 23.3 g NaCl, 4 ml 0.5 M EDTA pH 8 (Invitrogen), 5 ml 10% NaN3 in 1 L milliQ and adjusted to pH 7.0). 0.25 mM DTT (Sigma) is added to the thawed samples plates. After removal of the EC buffer, 20 μL of sample is transferred to the ELISA plates. […] Readout is performed on the Luminoscan Ascent Luminometer (Labsystems) with an integration time of 200 msec or with an Envision reader (Perkin Elmer). […]
For orientation: An ELISA detects its analyte on a solid surface through an enzyme-linked reagent.

The test system of assay [2] is TNFα release by human PBMCs. The assay can be described thus: Cytokine release by LPS stimulated human PBMCs (TNFα ELISA). Format: cell-based. The conditions noted are these: PBMC, Table 5, LPS 1 μg/mL, 24 hr. On the procedure: Human peripheral blood mononuclear cells (PBMCs) are isolated from “buffy coats” prepared from the blood of healthy volunteers, isolated essentially according to method of Bøyum (1984). In brief, buffy coat is diluted 1:1 with 1×PBS (Gibco) and 30 mL is carefully put on top of 20 mL Lymphoprep™ (Lucron Bioproducts) in 50 mL Falcon tubes. After centrifugation (35 min, 400 g, 18° C.) the mononuclear cells are collected from the white interphase and washed 3 times with 1×PBS by resuspending and centrifugation (10 min, 200 g). Isolated PBMCs are finally resuspended in RPMI 1640 (Cat. No. 21875, Gibco) that is supplemented with 10% heat-inactivated FBS (Hyclone). […]
The following 384-well chemiluminescent ELISA protocol was developed to measure TNFα levels in the supernatant: White Lumitrac 600 384-well plates (Greiner) are coated with (40 μL/well) anti-TNFα capture antibody (Cat. No. 551220, BD Pharmingen) that is diluted to 1 μg/mL in 1×PBS (Gibco). […] Readout is performed on the Luminoscan Ascent Luminometer (Labsystems) with an integration time of 100 msec delivering raw data (RLU: relative luminescence units). […] The percent inhibition (PIN) of the TNFα release, achieved by the compounds is then calculated based on the RLU data returned by the ELISA with following formula: 100−[((TNFα level compound X at concentration Y−minimal TNFα levels)/maximal TNFα levels−minimal TNFα levels))×100]. […]

pEC50: −log10 of the molar value.

In general, pEC50 refers to the negative decadic logarithm of the EC50, by convention in mol/L.

`O=C1NCc2cc(-c3cnc(Nc4ccc(N5CCOCC5)cc4)c4ncnn34)ccc21` [Compound 33, 5-(8-(4-Morpholinophenylamino)-[1,2,4]triazolo[1,5-a]pyrazin-5-yl)isoindolin-1-one]: the values for the pEC50 in assay [1] and in assay [2] were 6.30 to 7.00 and under 6.00, respectively.
The corresponding values for `c1nc2c(Nc3ccc(N4CCOCC4)cc3)ncc(-c3cn[nH]c3)n2n1` [Compound 1, (4-Morpholin-4-ylphenyl)-[5-(1H-pyrazol-4-yl)-[1,2,4]triazolo[1,5-a]pyrazin-8-yl]amine] are under 6.00 and under 6.00.

(Values after US20100298300A1, “TRIAZOLOPYRAZINE COMPOUNDS USEFUL FOR THE TREATMENT OF DEGENERATIVE & INFLAMMATORY DISEASES” (priority 2006, published 2010).)
